# Results published in patent publication US9688664B2, “Modulators of fatty acid amide hydrolase” (JANSSEN PHARMACEUTICA NV, priority 2010, dated 2017).
# Test system: rat
# Assay: Primary Observation (Irwin) Test in the rat
# Format: in vivo
# Conditions: listed as 4-(2,2-difluoro-benzo[1,3]dioxol-5-ylmethyl)-piperazine-1-carboxylic acid (4-chl
# Experimental: Primary Observation (Irwin) Test in the Rat
# The method, which detects the first toxic dose, the active dose-range and the main effects of a test substance on behavior and physiological function, follows that described by Irwin et al., Psychopharmacologia, 1968, 13, 222-257. […] All animals within a treatment group were observed simultaneously. Behavioral modifications, physiological and neurotoxicity symptoms, rectal temperature and pupil diameter were recorded according to a standardized observation grid derived from that of Irwin. The grid contains the following items: death, convulsions, tremor, Straub tail, altered activity, jumping, abnormal gait (rolling, tip-toe), motor uncoordination, altered abdominal muscle tone, loss of grasping, akinesia, catalepsy, loss of traction, loss of balance, fore-paw treading, writhes, piloerection, stereotypies (sniffing, chewing, head movements), head twitches, scratching, altered respiration, aggression, altered fear/startle, altered reactivity to touch, ptosis, exophthalmia, loss of righting reflex, loss of corneal reflex, analgesia, defecation/diarrhea, salivation, lacrimation, rectal temperature (hypothermia/hyperthermia) and pupil diameter (myosis/mydriasis). The test substances were evaluated at 2 doses (10 and 60 mg/kg), administered p.o. immediately before the test, and compared with a vehicle control group. Observations were performed 15, 30, 60, 120 and 180 minutes after administration of the test substances/vehicles and also 24 hours later.
compound,measurement,setting,value
O=C(Nc1cnccc1Cl)N1CCN(Cc2ccc3c(c2)OC(F)(F)O3)CC1 [Example 1],Increased reactivity to touch (rats affected/tested),"10 mg/kg p.o., at 180 min",one of four rats
same,Increased abdominal muscle tone (rats affected/tested),"60 mg/kg p.o., at 60 min",one of four rats
same,Abnormal gait (rats affected/tested),60 mg/kg p.o.,not apparent
same,Hypothermia (rats affected/tested),60 mg/kg p.o.,absent
same,Sedation (rats affected/tested),60 mg/kg p.o.,not apparent
